From ChEMBL document CHEMBL1143520, “Bicyclic amidine inhibitors of nitric oxide synthase: discovery of perhydro-iminopyrindine and perhydro-iminoquinoline as potent, orally active inhibitors of inducible nitric oxide synthase” (Bioorg Med Chem Lett, 2005) come the findings set out here.

The target of this experiment is T1, Nitric oxide synthase 3 (Homo sapiens, UniProt P29474).
T1 sequence (P29474 whole entry): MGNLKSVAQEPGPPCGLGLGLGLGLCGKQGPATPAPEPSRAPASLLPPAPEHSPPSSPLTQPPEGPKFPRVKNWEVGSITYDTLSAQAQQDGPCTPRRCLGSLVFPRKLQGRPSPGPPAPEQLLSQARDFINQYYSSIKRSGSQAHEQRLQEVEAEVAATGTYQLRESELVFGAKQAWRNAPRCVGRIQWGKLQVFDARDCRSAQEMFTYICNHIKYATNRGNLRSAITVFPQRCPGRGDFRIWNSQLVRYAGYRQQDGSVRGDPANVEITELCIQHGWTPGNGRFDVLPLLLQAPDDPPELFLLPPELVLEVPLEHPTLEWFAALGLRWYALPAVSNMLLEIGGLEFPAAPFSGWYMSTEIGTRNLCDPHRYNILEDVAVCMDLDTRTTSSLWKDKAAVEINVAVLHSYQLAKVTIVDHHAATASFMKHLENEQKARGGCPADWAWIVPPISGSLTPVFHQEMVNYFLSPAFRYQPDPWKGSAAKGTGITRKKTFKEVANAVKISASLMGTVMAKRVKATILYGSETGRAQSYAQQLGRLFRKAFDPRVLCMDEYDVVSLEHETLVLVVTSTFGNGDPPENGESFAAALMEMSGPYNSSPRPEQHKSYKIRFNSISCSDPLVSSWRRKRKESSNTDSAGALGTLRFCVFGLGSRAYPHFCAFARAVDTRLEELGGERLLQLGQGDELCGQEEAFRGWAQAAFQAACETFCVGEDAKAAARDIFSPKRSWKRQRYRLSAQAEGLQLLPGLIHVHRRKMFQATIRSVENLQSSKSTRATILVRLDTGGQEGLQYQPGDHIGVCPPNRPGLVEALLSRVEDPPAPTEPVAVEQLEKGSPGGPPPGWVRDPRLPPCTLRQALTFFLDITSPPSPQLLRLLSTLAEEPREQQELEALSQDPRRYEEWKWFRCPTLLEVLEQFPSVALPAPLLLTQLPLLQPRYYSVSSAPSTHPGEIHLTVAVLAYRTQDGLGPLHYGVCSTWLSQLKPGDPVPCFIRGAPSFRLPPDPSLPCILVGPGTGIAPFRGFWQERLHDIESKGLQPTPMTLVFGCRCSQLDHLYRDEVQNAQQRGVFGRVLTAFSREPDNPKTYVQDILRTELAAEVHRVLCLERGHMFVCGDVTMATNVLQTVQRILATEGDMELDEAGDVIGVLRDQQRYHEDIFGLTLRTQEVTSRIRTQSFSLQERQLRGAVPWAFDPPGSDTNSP
Put plainly: Inhibitory activity against human Endothelial nitric oxide synthase (eNOS).

Broadly, the IC50 is the concentration needed to halve the response being measured. Low values mean greater potency in that assay, high ones weaker potency in that assay. Consider `CC1CC(N)=Nc2ccccc21` (stereo unspecified), for which the IC50 is 15.3 µM.
